Literature values as cited in patent US20250281570A1 (UCB BIOPHARMA SRL, priority 2022, published 2025).

Key:
[1] = test system: AChR autoantibody-positive patients with refractory gMG
[2] = test system: AChR autoantibody-positive patients with refractory gMG; remark: listed apart in the source
[3] = Eculizumab 1200 mg, Week 26, REGAIN
[4] = REGAIN and open-label extension

B1: eculizumab (antibody, chains of the INN, looked up)
heavy: QVQLVQSGAEVKKPGASVKVSCKASGYIFSNYWIQWVRQAPGQGLEWMGEILPGSGSTEYTENFKDRVTMTRDTSTSTVYMELSSLRSEDTAVYYCARYFFGSSPNWYFDVWGQGTLVTVSSASTKGPSVFPLAPCSRSTSESTAALGCLVKDYFPEPVTVSWNSGALTSGVHTFPAVLQSSGLYSLSSVVTVPSSNFGTQTYTCNVDHKPSNTKVDKTVERKCCVECPPCPAPPVAGPSVFLFPPKPKDTLMISRTPEVTCVVVDVSQEDPEVQFNWYVDGVEVHNAKTKPREEQFNSTYRVVSVLTVLHQDWLNGKEYKCKVSNKGLPSSIEKTISKAKGQPREPQVYTLPPSQEEMTKNQVSLTCLVKGFYPSDIAVEWESNGQPENNYKTTPPVLDSDGSFFLYSRLTVDKSRWQEGNVFSCSVMHEALHNHYTQKSLSLSLG
light: DIQMTQSPSSLSASVGDRVTITCGASENIYGALNWYQQKPGKAPKLLIYGATNLADGVPSRFSGSGSGTDFTLTISSLQPEDFATYYCQNVLNTPLTFGQGTKVEIKRTVAAPSVFIFPPSDEQLKSGTASVVCLLNNFYPREAKVQWKVDNALQSGNSQESVTEQDSKDSTYSLSSTLTLSKADYEKHKVYACEVTHQGLSSPVTKSFNRGEC
In the case of B1, the “time to impact on QMG score after initiating treatment” value ([1]; in vivo) is listed as at most 1 week, the “responding patients achieving an 8-point reduction in QMG score” value ([1]; initial 16-week treatment period) is listed as 4 and the “patients achieving ≥3-point improvement in QMG score” value ([1]; initial 16-week treatment period, 600 mg per week for 4 weeks then 900 mg every other week IV) is listed as 6 out of 7. For the same molecule, the “primary endpoint, change from baseline in MG-ADL relative to placebo” value ([2]; 26-week treatment period, 900 mg per week for 4 weeks then 1200 mg every other week IV, p=0.0698) was “not associated with a statistically significant benefit relative to placebo”, the “secondary endpoint, change from baseline in QMG score relative to placebo” value ([2]; 26-week treatment period, p=0.0129) was “statistically significant” and the “MG-ADL LS mean difference vs placebo (CI)” value [2, 3] was −1.8 (−3.2, −0.5); 0.0077. For the same molecule, the “MGC LS mean difference vs placebo (CI)” value [2, 3] was −3.3 (−5.9, −0.6); 0.0168, the “QMG LS mean difference vs placebo (CI)” value [2, 3] was −2.9 (−4.6, −1.2); 0.0007 and the “MG-ADL late responders (response achieved between Week 12 and end of OLE)” value [2, 4] was 17%. For the same molecule, the MG-ADL non responders [2, 4] was 15%, the “QMG late responders (response achieved between Week 12 and end of OLE)” value [2, 4] was 15% and the QMG non responders [2, 4] was 29%.
